Earlier results as cited in US4528290A, “Stimulating dopamine D-1 receptors” (Eli Lilly and Company, priority 1984, dated 1985).

Tested on: cyclic AMP levels in striatal tissue (D-1/D-2 receptors)
Settings: Stoof and Kebabian, cited from earlier work

In the case of `CCCN1CCC[C@@H]2Cc3[nH]ncc3C[C@H]21` (relative stereo) [Racemate, trans-(±)-5-n-propyl-4,4a,5,6,7,8,8a,9-octahydro-1H(and 2H)-pyrazolo[4,3-g]quinoline], the “reduction of the effect of SKF38393 in increasing cyclic AMP levels” value (FIG. 3 page 368) is given as 57±8% and the “effect on cyclic AMP levels” value (chart G page 367) is given as “lower cyclic AMP levels”.
